Test results taken from US3976762A (priority 1974, dated 1976).
Like-named read-outs stand apart in the source and are kept apart here.

Conditions: for Carcass, percent of total injected radioactivity / Gut, percent of total injected radioactivity / Kidney, percent of total injected radioactivity / Liver, percent of total injected radioactivity / Lungs, percent of total injected radioactivity / Pancreas, percent of total injected radioactivity / Spleen, percent of total injected radioactivity / Stomach, percent of total injected radioactivity / Urine and Feces, percent of total injected radioactivity: tail vein
[1] = mice, 0 h after injection, Sn(II) prep. of Ex. 1 (1 mg/ml), 3-5
[2] = mice, 1/2 h after injection, Sn(II) prep. of Ex. 1 (1 mg/ml), 3-5
[3] = mice, 1 h after injection, Sn(II) prep. of Ex. 1 (1 mg/ml), 3-5
[4] = mice, 2 h after injection, Sn(II) prep. of Ex. 1 (1 mg/ml), 3-5
[5] = mice, 4 h after injection, Sn(II) prep. of Ex. 1 (1 mg/ml), 3, 5

Substance: Tc-99m-chloromethylphosphonic acid diethylester
- Liver uptake and duration (in words) (animal liver): rapidly taken up by the animal liver and concentrations remain high for approximately two hours
- Localization / excretion of the complex (in words) (mice): preferentially eliminated via the liver
- Carcass, percent of total injected radioactivity [1]: 40.9%
- Gut, percent of total injected radioactivity [1]: 12.0%
- Kidney, percent of total injected radioactivity [1]: 7.0%
- Liver, percent of total injected radioactivity [1]: 29.7%
- Lungs, percent of total injected radioactivity [1]: 8.3%
- Pancreas, percent of total injected radioactivity [1]: 0.8%
- Spleen, percent of total injected radioactivity [1]: 0.3%
- Stomach, percent of total injected radioactivity [1]: 1.0%
- Urine and Feces, percent of total injected radioactivity [1]: 0.0%
- Carcass, percent of total injected radioactivity [2]: 18.4%
- Gut, percent of total injected radioactivity [2]: 29.5%
- Kidney, percent of total injected radioactivity [2]: 3.7%
- Liver, percent of total injected radioactivity [2]: 52.8%
- Lungs, percent of total injected radioactivity [2]: 1.8%
- Pancreas, percent of total injected radioactivity [2]: 0.3%
- Spleen, percent of total injected radioactivity [2]: 0.9%
- Stomach, percent of total injected radioactivity [2]: 0.6%
- Urine and Feces, percent of total injected radioactivity (mice, 1/2 h after injection, Sn(II) prep. of Ex. 1 (1 mg/ml), 3-5, 30 min): 8.1%
- Carcass, percent of total injected radioactivity [3]: 12.5%
- Gut, percent of total injected radioactivity [3]: 35.5%
- Kidney, percent of total injected radioactivity [3]: 6.0%
- Liver, percent of total injected radioactivity [3]: 37.2%
- Lungs, percent of total injected radioactivity [3]: 3.4%
- Pancreas, percent of total injected radioactivity [3]: 0.2%
- Spleen, percent of total injected radioactivity [3]: 0.4%
- Stomach, percent of total injected radioactivity [3]: 0.6%
- Urine and Feces, percent of total injected radioactivity [3]: 4.1%
- Carcass, percent of total injected radioactivity [4]: 12.8%
- Gut, percent of total injected radioactivity [4]: 48.2%
- Kidney, percent of total injected radioactivity [4]: 4.7%
- Liver, percent of total injected radioactivity [4]: 26.2%
- Lungs, percent of total injected radioactivity [4]: 1.3%
- Pancreas, percent of total injected radioactivity [4]: 0.2%
- Spleen, percent of total injected radioactivity [4]: 0.7%
- Stomach, percent of total injected radioactivity [4]: 0.5%
- Urine and Feces, percent of total injected radioactivity [4]: 5.4%
- Carcass, percent of total injected radioactivity [5]: 7.3%
- Gut, percent of total injected radioactivity [5]: 15.7%
- Kidney, percent of total injected radioactivity [5]: 2.3%
- Liver, percent of total injected radioactivity [5]: 19.2%
- Lungs, percent of total injected radioactivity [5]: 1.0%
- Pancreas, percent of total injected radioactivity [5]: 0.1%
- Spleen, percent of total injected radioactivity [5]: 0.4%
- Stomach, percent of total injected radioactivity [5]: 0.4%
- Urine and Feces, percent of total injected radioactivity [5]: 53.6%
